{"sequences": {"note": "Sequences of proteins named here, by UniProt entry; tags and fusion partners are left off.", "UniProt P35363, whole entry": "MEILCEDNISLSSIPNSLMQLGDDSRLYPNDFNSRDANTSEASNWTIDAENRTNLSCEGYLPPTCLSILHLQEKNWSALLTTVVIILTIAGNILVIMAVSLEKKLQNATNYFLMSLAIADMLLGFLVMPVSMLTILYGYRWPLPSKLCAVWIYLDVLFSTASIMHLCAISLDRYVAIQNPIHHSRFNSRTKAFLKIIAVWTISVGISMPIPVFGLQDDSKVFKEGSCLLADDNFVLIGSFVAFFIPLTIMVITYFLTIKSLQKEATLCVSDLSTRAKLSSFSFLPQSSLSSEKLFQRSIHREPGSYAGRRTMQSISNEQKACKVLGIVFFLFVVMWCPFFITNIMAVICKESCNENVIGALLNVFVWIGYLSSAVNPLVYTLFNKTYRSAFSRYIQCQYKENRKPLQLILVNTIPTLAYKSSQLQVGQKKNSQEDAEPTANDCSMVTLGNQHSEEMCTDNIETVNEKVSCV"}, "source": "PubChem BioAssay AID624169", "about": "(The Scripps Research Institute Molecular Screening Center, 2012)", "note": "The entries are a selection whose mix differs from that of the whole data set. Activity calls are given as the source filed them.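 The calls were made as follows: active = activation above a run cutoff, the mean activation of all tested compounds plus 3 SD (cut at about 14% in these data); inactive = the rest.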"}
{"biological_target": "5-hydroxytryptamine receptor 2A (Mus musculus) (UniProt P35363)", "test": "mouse Htr2a agonists via beta-arrestin recruitment, primary screen, cell-based, luminescence (AID 624169);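 also: 0% = plate median of compound wells and 100% = 30 µM serotonin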", "settings": "CHO-K1 mHTR2A beta-arrestin complementation, at 7.6 µM, stronger effect = higher value, percent of 30 µM serotonin response"}
{"molecule": "COc1ccccc1OP(C)(=O)Nc1c(C)n(C)n(-c2ccccc2)c1=O", "note": "(stereo not given)", "activation": "inactive: -2.43%"}
{"molecule": "O=C(OCCCN1CCCC1)C(O)(c1ccccc1)C1CCCCC1", "note": "(stereo not given)", "activation": "inactive: -5.77%"}
{"molecule": "CCN(CC)CC(O)COC(=O)C(O)(c1ccccc1)C1CCCCC1", "note": "(stereo not given)", "activation": "inactive: -4.71%"}
{"molecule": "COc1ccc(OP(C)(=O)Nc2ccc(Br)cc2)cc1", "note": "(stereo not given)", "activation": "inactive: -2.63%"}
{"molecule": "CP(=O)(Nc1ccccn1)Oc1ccc(Cl)cc1", "note": "(stereo not given)", "activation": "inactive: -0.88%"}
{"molecule": "CCOP(C)(=S)SCC(=O)NC(C)C(=O)O", "note": "(stereo not given)", "activation": "inactive: 8.27%"}
{"molecule": "O=[N+]([O-])c1cc([N+](=O)[O-])c(O)c([N+](=O)[O-])c1.c1ccc(Oc2ccncc2)cc1", "activation": "inactive: -2.57%"}
{"molecule": "CCOC(=O)c1ccc(NP(C)(=O)Oc2ccc(OC)cc2)cc1", "note": "(stereo not given)", "activation": "inactive: 3.48%"}
{"molecule": "CCc1ccc(OP(C)(=O)N2CCN(c3ccc([N+](=O)[O-])cc3)CC2)cc1", "note": "(stereo not given)", "activation": "inactive: 6.28%"}
{"molecule": "CP(=O)(NC(=O)Nc1ccccc1)Oc1ccccc1", "note": "(stereo not given)", "activation": "inactive: 14.3%"}
{"molecule": "Cc1cc(C)cc(OP(C)(=O)Nc2ccc(SC(F)(F)F)cc2)c1", "note": "(stereo not given)", "activation": "inactive: -3.75%"}
{"molecule": "CP(=O)(Nc1ccc(SC(F)(F)F)cc1)Oc1ccc(Cl)cc1", "note": "(stereo not given)", "activation": "inactive: -7.34%"}
{"molecule": "Cc1ccc(Nc2c([N+](=O)[O-])cc([N+](=O)[O-])cc2[N+](=O)[O-])cc1", "activation": "inactive: -10.4%"}
{"molecule": "Cc1cccc(C)c1OP(C)(=O)Nc1ccc(SC(F)(F)F)cc1", "note": "(stereo not given)", "activation": "inactive: -1.6%"}
{"molecule": "CP(=O)(Oc1ccccc1)OC(c1ccccc1)C(F)(F)F", "note": "(stereo not given)", "activation": "inactive: -3.32%"}
{"molecule": "COc1ccccc1OP(C)(=O)Nc1ccccc1", "note": "(stereo not given)", "activation": "inactive: 4.08%"}
{"molecule": "CP(=O)(Nc1ccccc1Br)Oc1ccccc1", "note": "(stereo not given)", "activation": "inactive: 2.78%"}
{"molecule": "CP(=S)(Nn1cnnc1)Oc1ccccc1", "note": "(stereo not given)", "activation": "inactive: -1.8%"}
{"molecule": "COc1ccccc1OP(C)(=O)Nc1cc(Cl)ccc1C", "note": "(stereo not given)", "activation": "inactive: 2.16%"}
{"molecule": "COc1ccc(OP(C)(=O)Nc2cccc(F)c2)cc1", "note": "(stereo not given)", "activation": "inactive: 1.64%"}
{"molecule": "Cc1cc(C)cc(OP(C)(N)=O)c1", "note": "(stereo not given)", "activation": "inactive: 0.82%"}
{"molecule": "CCOC(=O)c1ccc(NP(C)(=O)Oc2ccccc2)cc1", "note": "(stereo not given)", "activation": "inactive: -0.49%"}
{"molecule": "COc1ccccc1OP(C)(=O)Nc1ccc(C)cc1", "note": "(stereo not given)", "activation": "inactive: 0.31%"}
{"molecule": "Cc1ccc(NP(C)(=O)Oc2ccccc2)c(C)c1", "note": "(stereo not given)", "activation": "inactive: 1.83%"}
{"molecule": "CC(C)(C)c1ccc(OP(C)(=O)Nc2ccc(SC(F)(F)F)cc2)cc1", "note": "(stereo not given)", "activation": "inactive: -5.83%"}
{"molecule": "Cc1cccc(C)c1OP(C)(N)=O", "note": "(stereo not given)", "activation": "inactive: 2.12%"}
{"molecule": "O=[N+]([O-])c1ccc2c(c1)C=Nc1ccccc1O2", "activation": "inactive: 4.83%"}
{"molecule": "O=[N+]([O-])c1cc([N+](=O)[O-])c(Nc2cccnc2)c([N+](=O)[O-])c1", "activation": "inactive: -3.23%"}
{"molecule": "COc1ccccc1-c1ccccn1.O=[N+]([O-])c1cc([N+](=O)[O-])c(O)c([N+](=O)[O-])c1", "activation": "inactive: -0.11%"}
{"molecule": "CCN(CC)CCCOC(=O)C(O)(c1ccccc1)c1ccccc1", "activation": "inactive: -2.87%"}
{"molecule": "CP(=O)(Nc1cccc(Br)c1)Oc1ccccc1", "note": "(stereo not given)", "activation": "inactive: -7.73%"}
{"molecule": "Cc1cc(C)cc(OP(C)(=O)Nc2ccccn2)c1", "note": "(stereo not given)", "activation": "inactive: 1.13%"}
{"molecule": "Cc1ccc(C)c(NP(C)(=O)Oc2ccccc2)c1", "note": "(stereo not given)", "activation": "inactive: 5.22%"}
{"molecule": "Cc1cc(C)cc(OP(C)(=O)Nc2ccc(C)cc2C)c1", "note": "(stereo not given)", "activation": "inactive: -1.3%"}
{"molecule": "CCOC(=O)c1ccc(NP(C)(=O)Oc2cc(C)cc(C)c2)cc1", "note": "(stereo not given)", "activation": "inactive: -3.65%"}
{"molecule": "COc1ccccc1OP(C)(=O)Nc1cccc(Br)c1", "note": "(stereo not given)", "activation": "inactive: -0.95%"}
{"molecule": "CC1=NCCc2c1[nH]c1ccccc21.O=[N+]([O-])c1cc([N+](=O)[O-])c(O)c([N+](=O)[O-])c1", "activation": "inactive: 1.68%"}
{"molecule": "O=C(O)c1cccc(Nc2c([N+](=O)[O-])cc([N+](=O)[O-])cc2[N+](=O)[O-])c1", "activation": "inactive: -7.02%"}
{"molecule": "CP(=O)(Nc1ccc(SC(F)(F)F)cc1)Oc1ccccc1", "note": "(stereo not given)", "activation": "inactive: -6.38%"}
{"molecule": "CCCOc1ccc(NP(C)(=O)Oc2ccc(Cl)cc2)cc1", "note": "(stereo not given)", "activation": "inactive: -0.23%"}
{"molecule": "COc1ccc(-c2ccccn2)cc1.O=[N+]([O-])c1cc([N+](=O)[O-])c(O)c([N+](=O)[O-])c1", "activation": "inactive: 3.82%"}
{"molecule": "CN1CCCCC1COC(=O)C1(O)c2ccccc2CCc2ccccc21", "note": "(stereo not given)", "activation": "inactive: -5.42%"}
{"molecule": "COc1ccccc1OP(C)(=O)Nc1c(C)cccc1C", "note": "(stereo not given)", "activation": "inactive: 1.57%"}
{"molecule": "O=[N+]([O-])c1cc([N+](=O)[O-])c(Nc2nnnn2CCO)c([N+](=O)[O-])c1", "activation": "inactive: -8.92%"}
{"molecule": "CC1=C2N=C(C=C3N=C(C(C)=C4[N-][C@@](C)([C@@H]5N=C1[C@](C)(CCC(=O)NC[C@@H](C)OP(=O)([O-])O[C@H]1[C@@H](O)[C@@H](n6cnc7cc(C)c(C)cc76)O[C@@H]1CO)[C@H]5CC(N)=O)[C@@](C)(CC(N)=O)[C@@H]4CCC(N)=O)[C@@](C)(CC(N)=O)[C@@H]3CCC(N)=O)C(C)(C)[C@@H]2CCC(N)=O.[C-]#N.[Co+3]", "activation": "inactive: -2.12%"}
{"molecule": "CCOC(=O)C(CC)C1=NC(C)(C)Cc2ccccc21.O=[N+]([O-])c1cc([N+](=O)[O-])c(O)c([N+](=O)[O-])c1", "note": "(stereo not given)", "activation": "inactive: 2.45%"}
{"molecule": "Cc1nc2ccc3ccccc3c2s1.O=[N+]([O-])c1cc([N+](=O)[O-])c(O)c([N+](=O)[O-])c1", "activation": "inactive: -3.36%"}
{"molecule": "O=[N+]([O-])c1cc([N+](=O)[O-])c(-c2cnn(-c3ccccc3)c2)c([N+](=O)[O-])c1", "activation": "inactive: 2.47%"}
{"molecule": "CN(Cc1cccnc1)C(=O)COc1ccc(Cl)c(Cl)c1.O=[N+]([O-])c1cc([N+](=O)[O-])c(O)c([N+](=O)[O-])c1", "activation": "inactive: -4.86%"}
{"molecule": "O=[N+]([O-])c1cc([N+](=O)[O-])c(-n2nnc3ccccc32)c([N+](=O)[O-])c1", "activation": "inactive: 3.15%"}
